Experimental data taken from ChEMBL document CHEMBL4837227, “Discovery and development of 2-aminobenzimidazoles as potent antimalarials” (Eur J Med Chem, 2021).

Assay: Selectivity index, ratio of IC50 for antimalarial activity against Plasmodium falciparum Dd2 to IC50 of antimalarial activity against Plasmodium falciparum 3D7
Assay type: functional

Work on `C[C@H]1[C@H](OC(=O)CCC(=O)O)O[C@@H]2O[C@@]3(C)CC[C@H]4[C@H](C)CC[C@@H]1[C@@]24OO3` yielded a Ratio IC50 of 1.4.
